The other results are listed elsewhere or left out. Active and inactive are the calls of the source.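 Rule for the calls: active = activation factor at least 2 at 20 µM; inactive = the rest.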
biological target: Alkaline phosphatase, tissue-nonspecific isozyme (Homo sapiens) (UniProt P05186); test: activation of human TNAP, high DEA acceptor – biochemical, luminescence, uHTS, primary screen (AID 1136); conditions: purified TNAP, CDP-star luminescence, 1 M DEA, 30 min, at 20 µM; active compounds read high, 0 = EDTA background, 1 = DMSO-only activity

Amino acid sequences for entries named in this document (tags omitted).
UniProt P05186, whole entry: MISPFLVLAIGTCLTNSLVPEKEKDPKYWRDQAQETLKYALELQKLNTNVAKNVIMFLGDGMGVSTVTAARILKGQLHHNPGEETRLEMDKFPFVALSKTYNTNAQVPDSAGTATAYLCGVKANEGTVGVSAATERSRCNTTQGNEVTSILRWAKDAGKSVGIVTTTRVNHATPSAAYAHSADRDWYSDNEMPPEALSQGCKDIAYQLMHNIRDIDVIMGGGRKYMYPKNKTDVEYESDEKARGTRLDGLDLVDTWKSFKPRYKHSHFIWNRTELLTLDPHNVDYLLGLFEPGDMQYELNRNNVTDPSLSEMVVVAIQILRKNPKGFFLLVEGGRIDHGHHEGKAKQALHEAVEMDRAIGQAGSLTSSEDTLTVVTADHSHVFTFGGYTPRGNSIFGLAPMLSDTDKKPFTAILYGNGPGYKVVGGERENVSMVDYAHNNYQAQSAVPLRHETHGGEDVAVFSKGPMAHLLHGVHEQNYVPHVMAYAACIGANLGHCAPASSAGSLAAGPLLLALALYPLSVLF

SMILES | activation factor
Cc1cc(SC(NC(=O)c2ccccc2)C(Cl)(Cl)Cl)nc(C(C)C)n1 (stereo unspecified) | inactive
CP(=S)(Nn1cnnc1)Oc1ccccc1 (stereo unspecified) | inactive
CP(=O)(Nc1ccccc1Br)Oc1ccccc1 (stereo unspecified) | inactive
O=P(Nc1ccccn1)(c1cccc2ccccc12)c1cccc2ccccc12 | inactive
Cc1cc(SC(NC=O)C(Cl)(Cl)Cl)ncn1 (stereo unspecified) | inactive
COc1ccccc1OP(C)(=O)Nc1ccccc1 (stereo unspecified) | inactive: 1.1
Cc1cccc(C)c1OP(C)(=O)Nc1ccc(SC(F)(F)F)cc1 (stereo unspecified) | inactive
CP(=O)(Oc1ccccc1)OC(c1ccccc1)C(F)(F)F (stereo unspecified) | inactive
O=C(COc1ccccc1)OC1CN2CCC1CC2 (stereo unspecified) | inactive
CP(=O)(NC(=O)Nc1ccccc1)Oc1ccccc1 (stereo unspecified) | inactive: 1.1
Cc1cc(C)cc(OP(C)(=O)Nc2ccc(SC(F)(F)F)cc2)c1 (stereo unspecified) | inactive
CCOC(=O)c1ccc(NP(C)(=O)Oc2ccc(OC)cc2)cc1 (stereo unspecified) | inactive
CCOP(C)(=S)SCC(=O)NC(C)C(=O)O (stereo unspecified) | inactive
CP(=O)(Nc1ccccn1)Oc1ccc(Cl)cc1 (stereo unspecified) | inactive
Cc1cc(=O)[nH]c(N[N+](=O)[O-])n1 | inactive
CCN(CC)CCCOC(=O)C(O)(c1ccccc1)c1ccccc1 | inactive
Cc1c2c(nc3ccccc13)SC(C(Cl)Cl)C2 (stereo unspecified) | inactive
COc1ccc(N/C(=N/P(=O)(N2CCOCC2)N2CCOCC2)N2CCOCC2)cc1 | inactive
O=[N+]([O-])c1ccc2c(c1)C=Nc1ccccc1O2 | inactive: 0.8
Cc1ccc2nc3c(c(C)c2c1)CC(C(Cl)Cl)S3 (stereo unspecified) | inactive
CC(C)(C)c1ccc(OP(C)(=O)Nc2ccc(SC(F)(F)F)cc2)cc1 (stereo unspecified) | inactive
Cc1cccc(C)c1OP(C)(N)=O (stereo unspecified) | inactive
COc1ccccc1OP(C)(=O)Nc1ccc(C)cc1 (stereo unspecified) | inactive
Cc1ccc(NP(C)(=O)Oc2ccccc2)c(C)c1 (stereo unspecified) | inactive
CCOC(=O)c1ccc(NP(C)(=O)Oc2ccccc2)cc1 (stereo unspecified) | inactive
ClCCSc1nnc(-c2cccnc2)o1 | inactive

SMILES | activation factor
Cc1cc(C)cc(OP(C)(N)=O)c1 (stereo unspecified) | inactive: 1.1
COc1ccccc1OP(C)(=O)Nc1cc(Cl)ccc1C (stereo unspecified) | inactive
CC(C)NC(=O)NP(=O)(Oc1ccccc1)Oc1ccccc1 | inactive
CCN(CC)C(=S)SC(NC=O)C(Cl)(Cl)Cl (stereo unspecified) | inactive
COc1ccc(OP(C)(=O)Nc2cccc(F)c2)cc1 (stereo unspecified) | inactive
O=P(Nc1nccs1)(Oc1ccccc1)Oc1ccccc1 | inactive
O=P(Nc1nccs1)(c1ccccc1)c1nc2ccccc2s1 (stereo unspecified) | inactive
CC1=NCCc2c1[nH]c1ccccc21.O=[N+]([O-])c1cc([N+](=O)[O-])c(O)c([N+](=O)[O-])c1 | inactive: 0.9
CCOP1(=S)c2c(C)nn(CCC#N)c2N=C(c2ccc(F)cc2)N1C (stereo unspecified) | inactive
COc1cc(C(=O)NCC2(N3CCOCC3)CCCCC2)cc(Cl)c1OC(C)C | inactive
CCOC(=O)c1ccc(NP(C)(=O)Oc2cc(C)cc(C)c2)cc1 (stereo unspecified) | inactive
Cc1cccc(OCC(=O)OC2CN3CCC2CC3)c1 (stereo unspecified) | inactive
Cc1cc(C)cc(OP(C)(=O)Nc2ccc(C)cc2C)c1 (stereo unspecified) | inactive
Cc1ccc(C)c(NP(C)(=O)Oc2ccccc2)c1 (stereo unspecified) | inactive
Cc1cc(C)cc(OP(C)(=O)Nc2ccccn2)c1 (stereo unspecified) | inactive
CP(=O)(Nc1cccc(Br)c1)Oc1ccccc1 (stereo unspecified) | inactive
CCOP(=O)(Nc1cccc2ccccc12)OCC | inactive
O=P1(Nc2ccccn2)COc2ccccc2OC1 | inactive
O=[N+]([O-])c1cc([N+](=O)[O-])c(-n2nnc3ccccc32)c([N+](=O)[O-])c1 | inactive
Clc1n[nH]nc1-c1nn[nH][15n]1 | inactive
Cc1nc2ccc3ccccc3c2s1.O=[N+]([O-])c1cc([N+](=O)[O-])c(O)c([N+](=O)[O-])c1 | inactive
CC(C)/C=N\N=C(\N)N[N+](=O)[O-] | inactive
COc1cc(C2NCCC3(OCCO3)C2(C)C)cc(OC)c1OC.O=[N+]([O-])c1cc([N+](=O)[O-])c(O)c([N+](=O)[O-])c1 (stereo unspecified) | inactive
Cc1nn(-c2ccccc2)c2c1P(=O)(N1CCOCC1)N(C)C(c1ccccc1)=N2 (stereo unspecified) | inactive
COc1ccccc1OP(C)(=O)Nc1c(C)cccc1C (stereo unspecified) | inactive
CN1CCCCC1COC(=O)C1(O)c2ccccc2CCc2ccccc21 (stereo unspecified) | inactive

SMILES | activation factor
O=P1(Nc2ncccn2)COc2ccccc2OC1 | inactive
Cc1ccc(OCC(=O)OC2CN3CCC2CC3)cc1 (stereo unspecified) | inactive
CCCOc1ccc(NP(C)(=O)Oc2ccc(Cl)cc2)cc1 (stereo unspecified) | inactive
CP(=O)(Nc1ccc(SC(F)(F)F)cc1)Oc1ccccc1 (stereo unspecified) | inactive
COc1ccc(OP(C)(=O)Nc2cccc(Br)c2)cc1 (stereo unspecified) | inactive: 1.1
O=P(Nc1ccccn1)(c1ccc(Br)cc1)c1ccc(Br)cc1 | inactive
CN(C)CCOC(=O)C(O)(c1ccccc1)C1CCCCC1 (stereo unspecified) | inactive
COc1ccc(NP(C)(=O)Oc2ccccc2OC)cc1 (stereo unspecified) | inactive
CC(=O)NC(SC(=S)N(C)C)C(Cl)(Cl)Cl (stereo unspecified) | inactive
O=[N+]([O-])c1cc([N+](=O)[O-])c(NCC2CCS(=O)(=O)C2)c([N+](=O)[O-])c1 (stereo unspecified) | inactive: 0.9
O=C(OC1CN2CCC1CC2)c1cccc(Cl)c1 (stereo unspecified) | inactive
CC(C)C(=O)NC(Sc1ccccc1)C(Cl)(Cl)Cl (stereo unspecified) | inactive
O=P(Nc1nccs1)(c1ccccc1)c1ccccc1 | inactive
CCOP(C)(=S)SCC(=O)NC(C)(CC)C(=O)O (stereo unspecified) | inactive
c1nnnn1CCn1cnnn1 | inactive
CP(=O)(Nc1ccc2c(c1)OCCO2)Oc1ccccc1 (stereo unspecified) | inactive
Cc1ccccc1NP(C)(=O)Nc1ccccc1C | inactive
O=P1(Nc2nc3ccc(Cl)cc3s2)COc2ccccc2O1 (stereo unspecified) | inactive
CCOc1ccc(C2=NCC(CBr)S2)cc1 (stereo unspecified) | inactive
CP(=O)(Nc1ccccc1F)Oc1ccccc1 (stereo unspecified) | inactive: 1.1
CC(C)(C)C(=O)NC(Sc1ccccc1)C(Cl)(Cl)Cl (stereo unspecified) | inactive
CC(C)c1ccc(OP(C)(=O)Nc2ccc(SC(F)(F)F)cc2)cc1 (stereo unspecified) | inactive
O=C(OCCN1CCN(CCOCc2ccccc2)CC1)C(O)(c1ccccc1)c1ccccc1 | inactive
CC(=O)Nc1ccc(Oc2c([N+](=O)[O-])cc([N+](=O)[O-])cc2[N+](=O)[O-])cc1 | inactive
